Results taken from PubChem BioAssay AID2300 (The Scripps Research Institute Molecular Screening Center, 2010).
Only a part is listed here, and it is no random draw. Some tests of the compounds listed are not included; inactive here does not mean inactive elsewhere. Active and inactive are the calls of the source.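 Rule for the calls: active = percent inhibition above the cutoff of mean plus 3 SD of all tested compounds, set per screening campaign (cut at about 20% in these data); inactive = the rest.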

Amino acid sequences for entries named in this document (tags omitted).
UniProt Q9Y5X4, whole entry: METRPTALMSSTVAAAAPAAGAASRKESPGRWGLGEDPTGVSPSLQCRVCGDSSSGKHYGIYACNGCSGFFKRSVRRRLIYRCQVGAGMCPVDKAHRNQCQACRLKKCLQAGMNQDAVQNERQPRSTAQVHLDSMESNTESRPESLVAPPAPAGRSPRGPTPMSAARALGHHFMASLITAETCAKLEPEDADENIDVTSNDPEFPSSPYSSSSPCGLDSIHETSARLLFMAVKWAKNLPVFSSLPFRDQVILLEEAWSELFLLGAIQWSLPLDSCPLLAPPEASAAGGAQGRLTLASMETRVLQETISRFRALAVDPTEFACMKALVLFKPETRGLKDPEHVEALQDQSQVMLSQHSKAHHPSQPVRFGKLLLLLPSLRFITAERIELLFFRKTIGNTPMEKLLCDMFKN

Target: Photoreceptor-specific nuclear receptor (Homo sapiens) (UniProt Q9Y5X4)
Test: disruption of NR2E3 corepressor interaction – biochemical, TR-FRET, GST-NR2E3, biotin-RetCOR, NR2E3 agonist project, primary screen (AID 2300);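 note: 0% = DMSO wells and 100% = biotin wells as full block of FRET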
Conditions: 1536-well, at 4.78 µM, stronger effect = higher value
Procedure, shortened: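 Test system – NR2E3–RetCOR corepressor complex · Quantity – NR2E3 fusion 1.35 nM · Buffer or medium – Tris pH 7.5 · Incubation – Compound–protein incubation for 5 h at 4 °C · Technique – TR-FRET, Eu(K)-anti-GST donor, streptavidin-D2 acceptor, ex 340, em 617/671 nm · Evaluation – percent inhibition of 671/617 nm emission ratio versus biotin and DMSO controls · Plate – 1536-well format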

| Structure (SMILES) | inhibition of corepressor binding |
| --- | --- |
| Cc1ccc(C(=O)NCC2(N3CCCCC3)CCCCC2)cc1 | inactive: 6.45% |
| CC(C)N1C(=O)CC2(CCN(CCOC(=O)C(O)(c3ccccc3)c3ccccc3)CC2)C1=O | inactive: -1.94% |
| CCN(CC)CC(C)C(C)OC(=O)C(O)(c1ccccc1)c1ccccc1 (centres undefined) | inactive: 1.31% |
| COc1cc(SC)ccc1C(=O)NCC1(N(C)C)CCCCC1 | inactive: -2.36% |
| CN1[C@@H]2CC[C@H]1CC(OC(=O)C(O)(c1ccccc1)c1ccccc1)C2 (some centres undefined) | inactive: 3.17% |
| O=C(NCC1(N2CCCCC2)CCCCC1)c1cc([N+](=O)[O-])ccc1Cl | inactive: -0.38% |
| Cc1cc(C(=O)NCC2(N3CCCCC3)CCCCC2)ccc1[N+](=O)[O-] | inactive: -1.35% |
| CCN1CCCC(OC(=O)C2(O)c3ccccc3C=Cc3ccccc32)C1 (centres undefined) | inactive: 0.11% |
| O=C(NCC1(N2CCCCC2)CCCCC1)c1cccc(Br)c1 | inactive: 0.42% |
| COc1ccc(C(=O)NCC2(N(C)C)CCCCC2)cc1 | inactive: -0.73% |
| C=CCN1CCN(CCOC(=O)C(O)(c2ccccc2)c2ccccc2)CC1 | inactive: -1.98% |
| O=C(NCC1(N2CCCCC2)CCCCC1)c1cc(F)c(F)cc1Cl | inactive: 6.09% |
| Cc1ccccc1C(=O)NCC1(N2CCCCC2)CCCCC1 | inactive: -0.61% |
| CN(C)C1CCCC1OC(=O)C(O)(c1ccccc1)c1ccccc1 (centres undefined) | inactive: 0.93% |
| CN(C)c1ccc(C(=O)NCC2(N(C)C)CCCCC2)cc1 | inactive: -1.18% |
| O=C(NCC1(N2CCCCC2)CCCCC1)c1cccc(Cl)c1 | inactive: 1.86% |
| COc1cccc(C(=O)NCC2(N3CCCCC3)CCCCC2)c1 | inactive: -2.74% |
| COc1ccc(Cl)cc1C(=O)NCC1(N(C)C)CCCCC1 | inactive: -2.89% |
| COc1cc(C(=O)NCC2(N(C)C)CCCCC2)c([N+](=O)[O-])cc1OC | inactive: 2.53% |
| CN(C)C1(CNC(=O)c2ccc(Br)cc2)CCCCC1 | inactive: -4.06% |
| CN(C)c1cccc(C(=O)NCC2(N(C)C)CCCCC2)c1 | inactive: 3.41% |
| CC(C)Oc1ccc(C(=O)NCC2(N(C)C)CCCCC2)cc1 | inactive: 2.07% |
| COc1ccc(Br)c(C(=O)NCC2(N3CCCCC3)CCCCC2)c1 | inactive: -1.34% |
| O=C(OC1CN2CCC1CC2)C(CO)(c1ccccc1)c1ccccc1 (centres undefined) | inactive: -0.56% |
